For the assay, the species on record is Homo sapiens. The experiment in a line: Selectivity index, ratio of Ki for recombinant human CB1R expressed in HEK293 cell membranes to Ki for recombinant human CB2R expressed in HEK293 cell membranes. Type of assay: cell-based.
As to `CCCCN1C(=O)C(C(=O)NC23CC4CC(CC(C4)C2)C3)=C(O)C2C1C=NN2C` (configuration not stated), the Ratio Ki came to 38.

In the case of `CCCCn1c(=O)c(C(=O)NC23CC4CC(CC(C4)C2)C3)c(O)c2nn(CCO)cc21`, the Ratio Ki was greater than 54.

`Cn1cc2c(n1)c(O)c(C(=O)NC13CC4CC(CC(O)(C4)C1)C3)c(=O)n2CCCCF`: the Ratio Ki is greater than 161.

`Cn1cc2c(n1)c(O)c(C(=O)NC13CC4CC(CC(C4)C1)C3)c(=O)n2CCCCO`: the Ratio Ki was greater than 70.

Take `Cn1cc2c(n1)c(O)c(C(=O)NC13CC4CC(CC(C4)C1)C3)c(=O)n2CCCCF`: the Ratio Ki turned out to be 253.

On to `CCCCn1c(=O)c(C(=O)NC23CC4CC(CC(O)(C4)C2)C3)c(O)c2nn(C)cc21`, for which the Ratio Ki is greater than 94.

In the case of `CCCCCn1c(=O)c(C(=O)NC23CC4CC(CC(O)(C4)C2)C3)c(O)c2nn(CCO)cc21`, the Ratio Ki is 9.

Consider `CN1N=CC2C1C(O)=C(C(=O)NC13CC4CC(CC(O)(C4)C1)C3)C(=O)N2CCCCF` (configuration not stated), for which the Ratio Ki is 8.

For the compound `CCCCN1C(=O)C(C(=O)NC23CC4CC(CC(O)(C4)C2)C3)=C(O)C2C1C=NN2C` (configuration not stated), the Ratio Ki came out at 4.

As to `CC(=O)OCCCCn1c(=O)c(C(=O)NC23CC4CC(CC(C4)C2)C3)c(O)c2nn(C)cc21`, the Ratio Ki was greater than 57.

Regarding `CN1N=CC2C1C(O)=C(C(=O)NC13CC4CC(CC(C4)C1)C3)C(=O)N2CCCCF` (configuration not stated), the Ratio Ki worked out at 28.

In the case of `CCCCCn1c(=O)c(C(=O)NC23CC4CC(CC(C4)C2)C3)c(O)c2nn(CCO)cc21`, the Ratio Ki came out at 22.

Values taken from ChEMBL document CHEMBL4616678, “Design, Synthesis, and Physicochemical and Pharmacological Profiling of 7-Hydroxy-5-oxopyrazolo[4,3-b]pyridine-6-carboxamide Derivatives with Antiosteoarthritic Activity In Vivo” (J Med Chem, 2020).
